Results: patent US20080255134A1 (Artesian Therapeutics, Inc., priority 2004, published 2008)

Target: beta-receptors from rat cortical membranes
Experiment: Non-specific β-receptor radioligand binding, [3H]DHA
Settings: read-out: Non-selective β-adrenergic IC50

IC50: 1820 nM
SMILES: CC(C)NCC(O)COc1ccc(CC(N)=O)cc1 (stereo not shown) [Atenolol, reference compound]
